Yeast mating assay B: variants of the scFv Ab-14

Data: MIT Lincoln Laboratory AlphaSeq set, Li et al. 2023, doi:10.1038/s41467-023-39022-2, as distributed in FLAb.

The target is the same throughout: PDVDLGDISGINAS, from the HR2 region of SARS-CoV-2 spike.

Ab-14 is the parent antibody, in scFv form: VH, then a (GGGGS)3 linker, then VL. The light chain is unchanged in all variants.
VH: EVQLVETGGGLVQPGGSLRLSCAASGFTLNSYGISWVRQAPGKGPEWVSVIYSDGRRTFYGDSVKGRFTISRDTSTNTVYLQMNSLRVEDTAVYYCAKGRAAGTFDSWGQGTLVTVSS
VL: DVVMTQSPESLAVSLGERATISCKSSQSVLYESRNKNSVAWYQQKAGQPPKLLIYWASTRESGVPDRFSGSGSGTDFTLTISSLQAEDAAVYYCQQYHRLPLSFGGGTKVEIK

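Phage display of a naive human antibody library on the peptide gave the parent. Designed CDR sequences, proposed from the first random library and measured here. Their group label is 14H_GP_HC (GP: Gaussian process model; HC: hill climbing; a sequence that several methods proposed may carry one label only). AlphaSeq pools MATa yeast showing the antibodies with MATalpha yeast showing the peptide. After mating in shaken culture at 30 °C for 16 h, diploids were selected and their barcode pairs sequenced. Each replicate has its own calibration line, from reference interactions of the BCL2 family. There are six technical replicates.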

The parent's heavy chain CDRs are GFTLNSYGIS, VIYSDGRRTFYGDSVK, GRAAGTFDS; each variant's own CDRs replace them letter for letter.
Numbers give log10(Kd / nM), so 0 is 1 nM and 3 is 1 µM. Smaller is tighter.
"nd" marks a missing value. The strain was present, yet no cells mated with the target were sequenced in that replicate, which points to weak or no binding.

CDR-H1 | CDR-H2 | CDR-H3 | replicates, log10 nM | control signals
GFTLDSYGIS | VIYSDGRRTFYGDSVK | GQAAGTFDQ | nd / 1.27 / 1.11 / 1.59 / 0.87 / 2.01 | 0/18
GFTLDSYGIS | VIYSDGRRTFYGDSVK | GRAAGTFCV | nd / nd / nd / nd / nd / nd | 0/18
NFDLNSYGIS | VIYSDGRRTFYGDSVK | GRQAGTFNS | nd / 1.97 / 1.47 / 1.70 / 1.24 / nd | 1/18 (3.21)
GFSLNEYGIS | VIYADGRRTFYGDSVK | GGAAGTFDS | 0.37 / -0.08 / 0.29 / -0.15 / 0.56 / -0.07 | 0/18
GFWLNDYGIS | VIYSDGRRTFYIDSVK | GRLAGTFDS | 0.57 / 0.14 / 1.01 / 1.96 / 0.24 / 0.03 | 0/18
GFTLNEYGIS | VIYSDGRRTAYQDSVK | GRAAGTFDS | -0.19 / -0.22 / 0.31 / -0.04 / -0.32 / -0.51 | 1/18 (1.01)
GFSLNEYGIS | VIYSDGRRTFYCDSVK | GPAAGTFDS | 0.95 / 1.44 / 2.57 / 0.78 / 1.30 / 1.20 | 1/18 (2.31)
GFTLNEYGIS | VIYSDGRRTFYSDSVK | GRAAGKFTS | nd / nd / nd / nd / nd / nd | 1/18 (1.88)
GFTLNSYGIS | VIYSDGRRTFYTDSVK | GMAAGTFDS | nd / nd / 0.64 / nd / nd / nd | 0/18
GFTLNEYGIS | VIYSDGRRTFYDDSVK | GRHAGTFDS | 0.05 / -0.04 / 0.26 / 0.00 / -0.35 / 0.22 | 0/18
GFTLDSYGIS | VIYSDGRRTFYDDSVK | GRLAGTFDS | 0.45 / 0.48 / 0.79 / 0.30 / 0.65 / 0.57 | 1/18 (2.16)
FFTLNEYGIS | VIYSDGRRTFYADSVK | GRTAGTFDS | 1.06 / 1.89 / 0.64 / 0.06 / 0.54 / 1.00 | 0/18
GFRLNEYGIS | VIYSDGRRTFYGDSVK | GRAAGTFDS | 0.88 / 0.54 / 1.11 / 0.62 / 0.70 / 0.36 | 0/18
GFTLNEYGIS | VIYSDGRRTFYQDSVK | GRFAGTFDR | 0.70 / 0.73 / 0.91 / 1.30 / 1.70 / 0.75 | 0/18
GFTLNEYGIS | VIYSDGRRTFYGDSVK | GREAGTFNS | 0.12 / 1.04 / 0.52 / 0.61 / -0.06 / 0.70 | 0/18
GFWLNDYGIS | VIYSDGRRTFYGDSVK | GKAAGTFDS | nd / nd / nd / nd / nd / 2.04 | 0/18
GFTLNSYGIS | VIYSDGRRTFYTDSVK | GQVAGKFDS | nd / nd / 1.69 / 1.39 / nd / nd | 0/18
GFTLDSYGIS | VIYADGRRTFYGDSVK | GRAAGTFES | nd / nd / -0.17 / -0.05 / nd / -0.28 | 0/18
GFKLNSYGIS | VIYSDGRRTFYDDSVK | GQEAGTFDS | nd / nd / nd / nd / nd / nd | 0/18
GFTLKSYGIS | VIYSDGRRTFYGDSVK | GKLAGTFDS | nd / 2.74 / 2.30 / nd / nd / nd | 1/18 (3.66)
GFTLNSYGIS | VIYSDGRRTFYCDSVK | GQVAGTFDS | nd / nd / 0.96 / nd / 1.85 / 1.56 | 0/18
GFDLNEYGIS | VIYSDGRRTFYMDSVK | GRTAGTFDS | 2.07 / 0.56 / 0.69 / 0.51 / 0.70 / 0.65 | 0/18
GFSLNMYGIS | VIYSDGRRTFYGDSVK | GTAAGTFDS | 0.60 / 0.60 / 0.61 / 0.40 / -0.09 / 0.34 | 0/18
GFDLNSYGIS | VIYSDGRRTFYGDSVK | GRIAGSFDS | 0.71 / 0.04 / -0.15 / 0.42 / 0.77 / 0.11 | 1/18 (2.44)
GFTLNEYGIS | VIYSDGRRTFYTDSVK | GVAAGTFDS | -0.42 / -0.31 / -0.02 / -0.25 / 0.09 / -0.40 | 0/18
GFTLNEYGIS | VIYSDGKRTQYMDSVK | GRAAGTFDS | nd / nd / nd / nd / nd / nd | 0/18
GFTLNEYGIS | VIYSDGRRTMYDDSVK | GRCAGTFDS | nd / 0.37 / 1.29 / -0.08 / -0.01 / 1.32 | 1/18 (0.15)
GFELNEYGIS | VIYSDGRRTFYGDSVK | GRAAGTFVS | nd / nd / nd / nd / nd / nd | 0/18
GFTLKEYGIS | VIYSDGRRTFYGDSVK | GRAAGTFDQ | nd / nd / nd / nd / 1.59 / nd | 0/18
GFELNSYGIS | VIYADMRRTFYGDSVK | GRAAGTFTS | nd / nd / nd / nd / nd / nd | 0/18
GFTLNDYGIS | VIYSDGRRTFYGDSVK | GKAAGTFWS | nd / nd / nd / nd / nd / nd | 0/18
GFTLESYGIS | VIYSDGRRTFYIDSVK | GRAAGTFTS | nd / nd / nd / nd / nd / nd | 0/18
GFTLNSYGIS | VIYSDGRRTFYEDSVK | GQEAGTFDS | 1.07 / -0.33 / -0.33 / -0.41 / -0.90 / 0.41 | 0/18
GFTLNDYGIS | VIYSDGRRTFYGDSVK | GRVAGTFES | 0.24 / 0.35 / 0.55 / 0.72 / 0.51 / 0.61 | 0/18
GFTLNQYGIS | VIYSDGRRTAYGDSVK | GRAAGTFVS | 0.73 / 1.14 / 0.79 / 0.37 / 0.47 / nd | 0/18
GFTLNEYGIS | VIYSDGRRTFYGESVK | GRAAGTFDQ | nd / 1.96 / nd / nd / nd / nd | 0/18
GFYLNDYGIS | VIYSDGRRTFYIDSVK | GRLAGTFDS | nd / 1.45 / 0.88 / 0.92 / 2.26 / 1.20 | 0/18
GFTLNSYGIS | VIYADGRRTFYGDSVK | GHAAGTFKM | 2.22 / nd / nd / nd / nd / nd | 0/18
GFQLNDYGIS | VIYSDGRRTFYGDSVK | GRAAGTFWS | nd / nd / nd / nd / nd / nd | 0/18
GFSLNQYGIS | VIYSDGRRTQYSDSVK | GRAAGTFDS | 1.12 / 0.82 / 0.60 / 0.84 / 0.76 / 0.25 | 0/18
GFDLNSYGIS | VIYSDGRRTFYRDSVK | GRAAVTFDS | 0.87 / 1.49 / 0.68 / 0.52 / 0.20 / 2.13 | 0/18
GFTLNSYGIS | VIYSDGRRTFYSDSVK | GRAAVTFDP | nd / nd / nd / nd / nd / nd | 0/18
GFTLNEYGIS | VIYSDGRRTFYTDSVK | GTAAGTFDL | -0.44 / -0.53 / -0.90 / -0.12 / -0.70 / -0.44 | 0/18
GFTLNSYGIS | VIYSDGRRTFYADSVK | GLLAGTFDS | nd / nd / 1.59 / nd / nd / 1.47 | 1/18 (2.64)
GFTLNEYGIS | VIYSDGYRTFYSDSVK | GRAAGTFDS | 0.21 / -0.12 / -0.15 / 0.33 / 0.25 / 0.33 | 0/18
EFDLNSYGIS | VIYSDGRRTFYGDSVK | GRQAGTFDS | 0.49 / 0.06 / -0.04 / -0.10 / -0.04 / 0.31 | 1/18 (2.90)
GFTLNAYGIS | VIYSDGRRTFYSDSVK | GTAAGTFDS | 0.22 / 0.23 / 0.22 / 0.09 / 0.17 / 0.34 | 0/18
GFDLNSYGIS | VIYSDGRRTFYGDSVK | GAEAGTFES | 1.22 / 0.39 / 0.71 / 0.85 / 0.82 / 0.50 | 1/18 (2.61)
GFTLKSYGIS | VIYSDGRRTFYDDSVK | GQLAGTFDS | nd / 2.34 / 2.50 / 2.17 / 0.87 / 1.56 | 0/18

7 of these entries, quoted again:

CDR-H1 | CDR-H2 | CDR-H3 | replicates, log10 nM | control signals
GFTLDSYGIS | VIYADGRRTFYGDSVK | GRAAGTFES | nd / nd / -0.17 / -0.05 / nd / -0.28 | 0/18
GFTLNEYGIS | VIYSDGRRTMYDDSVK | GRCAGTFDS | nd / 0.37 / 1.29 / -0.08 / -0.01 / 1.32 | 1/18 (0.15)
GFTLNSYGIS | VIYSDGRRTFYADSVK | GLLAGTFDS | nd / nd / 1.59 / nd / nd / 1.47 | 1/18 (2.64)
GFTLNSYGIS | VIYSDGRRTFYTDSVK | GQVAGKFDS | nd / nd / 1.69 / 1.39 / nd / nd | 0/18
GFELNSYGIS | VIYADMRRTFYGDSVK | GRAAGTFTS | nd / nd / nd / nd / nd / nd | 0/18
GFTLKEYGIS | VIYSDGRRTFYGDSVK | GRAAGTFDQ | nd / nd / nd / nd / 1.59 / nd | 0/18
NFDLNSYGIS | VIYSDGRRTFYGDSVK | GRQAGTFNS | nd / 1.97 / 1.47 / 1.70 / 1.24 / nd | 1/18 (3.21)

Values of this round are not directly comparable with the first-round values of the same sequences.
The authors' rule: three or more of the six replicates give a measured affinity, fewer mean a poor binder.
Empty control strains, which show no peptide, gave a signal in 1% of pairings with all heavy chain designs; the median was 2.08 and 95% of these signals were weaker than 0.84. No background was subtracted. The control count says in how many pairings with the empty strains this scFv gave a signal, with their mean in brackets.